Marks after values point to notes of the source that are not given here.
Key:
GluN1/GluN2AC1/GluN2CC2 [1] = molecular target: T1, GluN1/GluN2AC1/GluN2CC2 (Rattus norvegicus, UniProt P35439+Q00959+Q00961, V839F); experiment: Two-electrode voltage-clamp recordings in Xenopus oocytes
GluN1/GluN2AC1/GluN2CC2 [2] = molecular target: T1, GluN1/GluN2AC1/GluN2CC2; conditions: 5 ms pulse of 1 mM glutamate, continuous 100 μM glycine, n=24

Amino acid sequences for entries named in this document (tags omitted). A change or cut given only in a name is not applied to a line headed by its entry. Residues count along the entry.
UniProt Q00959, 23-1464: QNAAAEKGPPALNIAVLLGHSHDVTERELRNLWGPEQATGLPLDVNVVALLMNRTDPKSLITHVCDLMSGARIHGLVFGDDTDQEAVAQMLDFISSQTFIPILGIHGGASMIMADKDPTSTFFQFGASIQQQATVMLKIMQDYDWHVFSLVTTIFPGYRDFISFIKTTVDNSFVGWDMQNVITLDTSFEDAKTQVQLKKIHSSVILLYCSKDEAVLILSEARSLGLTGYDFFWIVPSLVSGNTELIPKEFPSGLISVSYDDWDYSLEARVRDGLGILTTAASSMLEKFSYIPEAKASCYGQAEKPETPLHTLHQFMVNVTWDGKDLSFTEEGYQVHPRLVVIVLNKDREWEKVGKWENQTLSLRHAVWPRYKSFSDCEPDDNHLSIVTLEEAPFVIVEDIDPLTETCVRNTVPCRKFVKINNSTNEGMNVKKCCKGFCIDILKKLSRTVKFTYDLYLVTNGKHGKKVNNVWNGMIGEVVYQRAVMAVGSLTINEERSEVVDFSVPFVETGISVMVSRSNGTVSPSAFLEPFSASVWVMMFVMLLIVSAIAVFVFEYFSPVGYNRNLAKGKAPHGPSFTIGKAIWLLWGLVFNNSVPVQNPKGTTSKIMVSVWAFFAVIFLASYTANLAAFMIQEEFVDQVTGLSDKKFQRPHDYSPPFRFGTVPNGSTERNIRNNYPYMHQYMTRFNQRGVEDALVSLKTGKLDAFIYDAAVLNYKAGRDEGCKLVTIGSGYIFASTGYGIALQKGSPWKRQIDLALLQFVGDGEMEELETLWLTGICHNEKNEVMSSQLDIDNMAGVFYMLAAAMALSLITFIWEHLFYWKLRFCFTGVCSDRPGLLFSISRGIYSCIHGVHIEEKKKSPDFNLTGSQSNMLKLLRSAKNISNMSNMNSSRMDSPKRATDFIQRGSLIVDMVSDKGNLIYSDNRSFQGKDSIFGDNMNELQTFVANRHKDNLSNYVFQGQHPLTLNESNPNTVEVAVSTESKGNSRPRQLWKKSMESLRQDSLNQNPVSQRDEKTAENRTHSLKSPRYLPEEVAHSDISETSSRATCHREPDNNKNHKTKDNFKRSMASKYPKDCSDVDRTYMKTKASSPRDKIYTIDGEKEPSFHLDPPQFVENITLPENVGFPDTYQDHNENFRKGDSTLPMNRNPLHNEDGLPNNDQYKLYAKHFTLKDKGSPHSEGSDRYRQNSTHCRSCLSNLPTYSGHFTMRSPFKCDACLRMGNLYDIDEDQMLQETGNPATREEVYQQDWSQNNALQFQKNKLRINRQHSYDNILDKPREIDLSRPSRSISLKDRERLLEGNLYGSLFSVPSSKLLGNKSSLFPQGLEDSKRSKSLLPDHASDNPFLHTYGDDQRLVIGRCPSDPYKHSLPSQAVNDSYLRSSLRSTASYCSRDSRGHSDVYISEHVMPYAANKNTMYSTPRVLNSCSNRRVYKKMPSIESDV
UniProt Q00961: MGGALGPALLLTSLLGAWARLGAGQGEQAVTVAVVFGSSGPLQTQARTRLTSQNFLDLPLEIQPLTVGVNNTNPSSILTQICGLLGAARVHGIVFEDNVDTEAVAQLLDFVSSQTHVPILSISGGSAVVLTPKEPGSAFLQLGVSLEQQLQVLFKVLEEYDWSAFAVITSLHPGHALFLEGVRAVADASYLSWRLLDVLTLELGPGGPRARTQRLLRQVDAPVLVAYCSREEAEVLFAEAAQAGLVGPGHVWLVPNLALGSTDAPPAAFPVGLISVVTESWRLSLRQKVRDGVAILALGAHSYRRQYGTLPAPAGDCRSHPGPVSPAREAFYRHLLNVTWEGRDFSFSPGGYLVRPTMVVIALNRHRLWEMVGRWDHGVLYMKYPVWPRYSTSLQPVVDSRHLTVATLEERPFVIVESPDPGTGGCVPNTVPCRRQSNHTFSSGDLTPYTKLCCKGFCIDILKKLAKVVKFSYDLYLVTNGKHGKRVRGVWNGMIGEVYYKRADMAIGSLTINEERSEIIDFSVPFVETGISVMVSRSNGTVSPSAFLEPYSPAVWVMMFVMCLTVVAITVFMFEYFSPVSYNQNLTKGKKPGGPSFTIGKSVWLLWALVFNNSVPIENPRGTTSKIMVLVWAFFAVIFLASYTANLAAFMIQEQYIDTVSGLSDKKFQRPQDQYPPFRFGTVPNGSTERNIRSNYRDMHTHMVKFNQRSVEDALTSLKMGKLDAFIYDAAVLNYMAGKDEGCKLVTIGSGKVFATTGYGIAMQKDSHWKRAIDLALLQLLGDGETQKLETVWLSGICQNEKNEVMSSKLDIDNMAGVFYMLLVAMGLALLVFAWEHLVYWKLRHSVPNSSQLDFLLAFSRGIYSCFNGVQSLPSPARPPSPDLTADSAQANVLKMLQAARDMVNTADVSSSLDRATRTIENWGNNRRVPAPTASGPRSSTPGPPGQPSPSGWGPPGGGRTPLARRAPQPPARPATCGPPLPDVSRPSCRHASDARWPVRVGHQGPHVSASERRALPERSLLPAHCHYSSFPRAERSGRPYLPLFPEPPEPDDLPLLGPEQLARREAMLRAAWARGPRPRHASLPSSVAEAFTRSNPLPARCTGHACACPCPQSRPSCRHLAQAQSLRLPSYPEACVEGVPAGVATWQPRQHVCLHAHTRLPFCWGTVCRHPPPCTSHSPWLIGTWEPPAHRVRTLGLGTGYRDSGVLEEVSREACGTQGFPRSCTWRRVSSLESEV

GluN2AC1/GluN2CC2 fitted response in saturating Zn2+ as percent of control (GluN1/GluN2AC1/GluN2CC2 [1]; pH 6.8, mean ± SEM) | GluN2AC1/GluN2CC2 fitted response in saturating Zn2+ as percent of control (GluN1/GluN2AC1/GluN2CC2 [1]; pH 7.3, mean ± SEM) | Zn2+ inhibition at alkaline pH (GluN1/GluN2AC1/GluN2CC2 [1]; pH 8.4, glutamate and glycine 50 μM, −20 mV, up to 300 nM Zn2+, data not shown) | SMILES | glutamate deactivation time constant (GluN1/GluN2AC1/GluN2CC2 [2]) [ms]
23±1.7 ^c % | 55±1.0 ^c % | did not show any inhibition | [Zn+2] [Zn^2+] | –
– | – | – | N[C@@H](CCC(=O)O)C(=O)O [Glutamate] | 301 ± 15
